Target: T1, Corticotropin-releasing factor receptor 1 (Homo sapiens, UniProt P34998)
T1 sequence (P34998 whole entry): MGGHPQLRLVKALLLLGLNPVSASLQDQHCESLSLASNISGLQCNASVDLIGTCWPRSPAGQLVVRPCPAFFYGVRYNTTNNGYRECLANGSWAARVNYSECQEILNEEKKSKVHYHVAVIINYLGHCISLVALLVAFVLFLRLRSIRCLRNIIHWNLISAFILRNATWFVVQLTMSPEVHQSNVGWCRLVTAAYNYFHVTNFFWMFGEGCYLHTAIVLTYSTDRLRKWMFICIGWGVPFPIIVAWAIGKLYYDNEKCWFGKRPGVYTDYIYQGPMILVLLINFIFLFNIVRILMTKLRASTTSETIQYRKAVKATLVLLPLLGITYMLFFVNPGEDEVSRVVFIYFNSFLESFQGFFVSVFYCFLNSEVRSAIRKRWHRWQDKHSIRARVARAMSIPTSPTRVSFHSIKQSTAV
Experiment: Inhibition of [125I][Tyr0]-sauvagine binding to human Corticotropin releasing factor receptor 1 expressed in mouse fibroblast Ltk- cells
Type: cell-based

SMILES: CCCCC(c1ccccc1)N(CCC)c1nc(-c2ccc(Cl)cc2OC)n(C)n1 (configuration not stated)
- Ki: 6.8 nM

SMILES: CCCN(c1n[nH]c(-c2ccc(Cl)cc2Cl)n1)C(C1CC1)C1CC1
- Ki: 4500 nM

Source: ChEMBL document CHEMBL1142705, “Rational design, synthesis, and structure-activity relationships of aryltriazoles as novel corticotropin-releasing factor-1 receptor antagonists” (J Med Chem, 2005)
